The values below come from US9611229B2, “1,2,3-triazole-4-amine derivatives for the treatment of sigma receptor related diseases and disorders” (LABORATORIOS DEL DR. ESTEVE S.A., priority 2013, dated 2017).

By UniProt entry, the sequences of proteins in these tests, tags left out.
UniProt Q60492, whole entry: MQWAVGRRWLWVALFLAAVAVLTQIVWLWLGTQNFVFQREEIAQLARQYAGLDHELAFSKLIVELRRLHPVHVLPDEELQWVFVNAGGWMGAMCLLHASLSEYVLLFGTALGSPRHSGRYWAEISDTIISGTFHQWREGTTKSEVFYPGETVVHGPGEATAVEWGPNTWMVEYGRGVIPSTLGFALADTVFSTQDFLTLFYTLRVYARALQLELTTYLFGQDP

Where a name gives a salt, the structure may show the parent alone.

This assay addresses sigma1-receptor (Cavia porcellus (Guinea pig), UniProt Q60492). Briefly: sigma-1 receptor binding assay, [3H]-(+)-pentazocine, brain membranes. To be noted: [3H]-(+)-pentazocine 5.0 nM, 150 min at 37° C., read-out: Ki (σ1). As to the method: (w/v) of Tris-HCl 50 mM 0.32 M sucrose, pH 7.4, with a Kinematica Polytron PT 3000 at 15000 r.p.m. for 30 s.
Guinea pig brains were homogenized in 10 vols. (w/v) of Tris-HCl 50 mM 0.32 M sucrose, pH 7.4, with a Kinematica Polytron PT 3000 at 15000 r.p.m. for 30 s. The homogenate was centrifuged at 1000 g for 10 min at 4° C. and the supernatants collected and centrifuged again at 48000 g for 15 min at 4° C. The pellet was resuspended in 10 volumes of Tris-HCl buffer (50 mM, pH 7.4), incubated at 37° C. for 30 min, and centrifuged at 48000 g for 20 min at 4° C. Following this, the pellet was re-suspended in fresh Tris-HCl buffer (50 mM, pH 7.4) and stored on ice until use.
The radioligand used was [^3H]-(+)-pentazocine at 5.0 nM and the final volume was 200 μl. The incubation was initiated with the addition of 100 μl of membrane at a final tissue concentration of approximately 5 mg tissue net weight/mL and the incubation time was 150 m. at 37° C. After incubation, the membranes were collected onto pretreated glass fiber filterplate (MultiScreen-FC, Millipore), with polyethylenimine 0.1%. The filters were washed two times with 200 μl of washing buffer (50 mM Tris Cl, pH=7.4) and then 25 μl of Ecoscint H liquid scintillation cocktail were added. Microplates were allowed to set for several hours and then quantified by liquid scintillation spectrophotometry (1450 Microbeta, Wallac). Nonspecific binding was determined with 1 μM haloperidol.
In the case of `c1c(NCCN2CCN(C3CCCCC3)CC2)nnn1C1CCCCC1` [Example 30, 1-cyclohexyl-N-(2-(4-cyclohexylpiperazin-1-yl)ethyl)-1H-1,2,3-triazol-4-amine hydrochloride], the Ki is 62.5 nM. The value for `c1c(NCCN2CCCCCC2)nnn1C12CC3CC(CC(C3)C1)C2` [Example 14, N-(2-(azepan-1-yl)ethyl)-1-(1-adamantyl)-1H-1,2,3-triazol-4-amine hydrochloride] was 10.8 nM. The value for `CC(=O)N1CCN(CCNc2cn(-c3ccc(Cl)c(Cl)c3)nn2)CC1` [Example 51, 1-(4-(2-(1-(3,4-dichlorophenyl)-1H-1,2,3-triazol-4-ylamino)ethyl)piperazin-1-yl)ethanone hydrochloride] was 275 nM; that for `Clc1ccc(Cn2cc(NCCCN3CCCCC3)nn2)cc1Cl` [Example 10, 1-(3,4-dichlorobenzyl)-N-(3-(piperidin-1-yl)propyl)-1H-1,2,3-triazol-4-amine hydrochloride] was 34.8 nM; that for `Fc1ccc(Cn2cc(NCCN3CCN(C4CCCCC4)CC3)nn2)cc1` [Example 34, N-(2-(4-cyclohexylpiperazin-1-yl)ethyl)-1-(4-fluorobenzyl)-1H-1,2,3-triazol-4-amine] was 133 nM.

Turning to `c1ccc(Cn2cc(NCCN3CCCC3)nn2)cc1` [Example 19, 1-benzyl-N-(2-(pyrrolidin-1-yl)ethyl)-1H-1,2,3-triazol-4-amine hydrochloride], the Ki is 214 nM. The value for `CC(=O)N(CCN1CCOCC1)c1cn(C23CC4CC(CC(C4)C2)C3)nn1` [Example 57, N-(1-(1-adamantyl)-1H-1,2,3-triazol-4-yl)-N-(2-morpholinoethyl)acetamide hydrochloride] was 71.5 nM; that for `CCN(CCN1CCOCC1)c1cn(-c2ccc(Cl)c(Cl)c2)nn1` [Example 65, 1-(3,4-dichlorophenyl)-N-ethyl-N-(2-morpholinoethyl)-1H-1,2,3-triazol-4-amine hydrochloride] was 216 nM. As for `CCN(CCN1CCOCC1)c1cn(C23CC4CC(CC(C4)C2)C3)nn1` [Example 64, 1-(1-adamantyl)-N-ethyl-N-(2-morpholinoethyl)-1H-1,2,3-triazol-4-amine hydrochloride], the Ki turned out to be 111 nM.
